System: SVR cells
Assay: SVR cell assay: cell numbers counted at 48 hours, percent inhibition versus control
Assay type: cell-based, murine
Settings: Mus musculus

## O=C(CCc1ccccc1)c1ccccc1 [Compound 42, 1,3-Diphenyl-1-propanone]
read-out: Percent Inhibition at a Specified Density (μg/ml): 3
  inhibition at 3 µg/mL: 16.3%
read-out: Percent Inhibition at a Specified Density (μg/ml): 6
  inhibition at 6 µg/mL: 49.4%
read-out: Percent Inhibition at a Specified Density (μg/ml): 9
  inhibition at 9 µg/mL: 75.8%
